The text below walks through data of BindingDB's records for doi:10.1021/acsmedchemlett.1c00450 (The Genomics Institute of The Novartis Research Foundation, 2021).

Molecules are shown by their SMILES.

The assay concerns the target Proto-oncogene tyrosine-protein kinase receptor Ret (Homo sapiens) (UniProt P07949). In words: Inhibition of CCDC6-RET fusion protein (unknown origin) expressed in human LC-2-ad cells assessed as reduction in cell proliferation incubated for 6 days by d CellTiter Glo assay. (Cellular ATP, detected with luciferase, serves as a proxy for viable cell number.)

As usually defined, the IC50 is the concentration needed to halve the response being measured. For `COC(=O)NC12CCC(n3cc(-c4ccc(Cl)c(N)c4)c4c(N)ncnc43)(CC1)CC2`, the half-inhibitory concentration (IC50) amounted to 110 nM.
